Where “and” joins values, the source holds several entries; their conditions need not be identical. Equal values may be shown once.
Test: Kanamycin and tobramycin plasma PK after IV bolus in dogs
Type: in vivo, Beagle dogs
Settings: single IV bolus 0.10 mg
Procedure: Adult Beagle dogs weighing approximately 10 to 15 kg were used in the study. The animals were housed at Sinclair Research Center, Columbia, Mo. either individually or in pairs in over-sized dog runs. […] A 12-hour light/12-hour dark photoperiod was maintained. Room temperature was set to be maintained at 20±5° C. Relative humidity was monitored but not controlled. Animal room and pen cleaning were performed according to the testing facility (Sinclair) SOPs.
Animals were fasted overnight prior to drug administration and throughout the blood collection period.
Adult female Beagle dogs, weighing 9-15 kg were used in the oral and IV studies. Dogs were fasted overnight before the beginning of each study but were allowed free access to water. On the day of the study, one pre-dose blood sample of 3 mL was collected from each animal.
After administration of the drug, 3 mL blood samples were collected from the brachial vein at various time-points up to 240 minutes (4 hours) post-administration. Blood samples were collected into new heparinized monovette sampling syringes. The samples were placed on ice before being centrifuged for 10 minutes at approximately 2750 rpm at 2-8° C. Each tube was labeled with the dog ID # and time-point, and they were stored at −20° C. pending shipment.
Plasma samples were diluted appropriately with the kit assay buffer.
The maximum plasma concentration (Cmax) values and their times of occurrence (Tmax) were obtained directly from the plasma concentration vs. time profiles. The areas under the plasma concentration-time curves (AUClast) were estimated by the linear trapezoidal rule from time zero to the time of the last observed plasma concentration.

Plasma Concentration, individual dogs (10 min): 70.40 ng/mL | Plasma Concentration, individual dogs (15 min): 56.24 ng/mL and 54.88 ng/mL | Plasma Concentration, individual dogs (20 min): 41.85 ng/mL
Compound: NC[C@H]1O[C@H](O[C@H]2[C@H](O)[C@@H](O[C@H]3O[C@H](CO)[C@@H](O)[C@H](N)[C@H]3O)[C@H](N)C[C@@H]2N)[C@H](O)[C@@H](O)[C@@H]1O [Kanamycin]

Reference: US9526785B2, “Pharmaceuticals for oral delivery” (Enteris BioPharma, Inc., priority 2013, dated 2016)
